Earlier results on one molecule are cited in patent US20110311455A1, “EN[…] GUIDED IMAGING AND THERAPIES” (THE REGENTS OF THE UNIVERSITY OF CALIFORNIA, priority 2008, published 2011).

The conditions of this series: freely dissolved ICG; rapid initial phase of bi-exponential clearance; cited from earlier work.

As for `CC1(C)C(/C=C/C=C/C=C/C=C2\N(CCCCS(=O)(=O)O)c3ccc4ccccc4c3C2(C)C)=[N+](CCCCS(=O)(=O)[O-])c2ccc3ccccc3c21` [ICG, indocyanine green], the plasma clearance half-life is 3 to 4 min.
